Assay results published in US20040121316A1 (priority 2002, published 2004).
pIC50, pKi: −log10 of the molar value. Read-outs that look alike come from different tables or passages of the source.

Target: T1, recombinant HIV-1 protease (Human immunodeficiency virus type 1 group M subtype B, UniProt P04585)
T1 construct: Enzyme: recombinant HIV-1 protease expressed in E.Coli; purchased Bachem California, Inc. H-9040; host or cells: E. coli
Assay: biochemical
Details: for pKi: Ki

| SMILES | Ki (pM) | other results |
| --- | --- | --- |
| COc1ccc(S(=O)(=O)N(CC(C)C)CC(O)C(CC2=CCN(CP(=O)(O)O)CC2)NC(=O)OC2COC3OCCC23)cc1 (centres unmarked) |  | pKi: < 9.00 |
| CCOP(=O)(CN1CC=C(CC(NC(=O)OC2COC3OCCC23)C(O)CN(CC(C)C)S(=O)(=O)c2ccc(OC)cc2)CC1)OCC (centres unmarked) |  | Ki: + + |
| COc1ccc(S(=O)(=O)N(CC(C)C)CC(O)C(CC2=CCN(CCP(=O)(OC)OC)CC2)NC(=O)OC2COC3OCCC23)cc1 (centres unmarked) |  | pKi: 9.00 to 10.00 |
| COc1ccc(S(=O)(=O)N(CC(C)C)CC(O)C(CC2=CCN(CCP(=O)(O)O)CC2)NC(=O)OC2COC3OCCC23)cc1 (centres unmarked) |  | pKi: < 9.00 |
| CCOP(=O)(CCC1=CCN(CC(NC(=O)OC2COC3OCCC23)C(O)CN(CC(C)C)S(=O)(=O)c2ccc(OC)cc2)CC1)OCC (centres unmarked) |  | pKi: 9.00 to 10.00 |
| CCOP(=O)(Cc1ccc(NCC(NC(=O)OC2COC3OCCC23)C(O)CN(CC(C)C)S(=O)(=O)c2ccc(OC)cc2)cc1)OCC (centres unmarked) |  | Ki: + + |
| COc1ccc(S(=O)(=O)N(CC(C)C)CC(O)C(CNc2ccc(CP(=O)(OCc3ccccc3)OCc3ccccc3)cc2)NC(=O)OC2COC3OCCC23)cc1 (centres unmarked) |  | Ki: + + |
| CCOC(=O)C(C)NP(=O)(Cc1ccc(NCC(NC(=O)OC2COC3OCCC23)C(O)CN(CC(C)C)S(=O)(=O)c2ccc(OC)cc2)cc1)NC(C)C(=O)OCC (centres unmarked) |  | Ki: + + |
| CCOP(=O)(Cc1ccc(N(C)CC(NC(=O)OC2COC3OCCC23)C(O)CN(CC(C)C)S(=O)(=O)c2ccc(OC)cc2)cc1)OCC (centres unmarked) |  | Ki: + + |
| CCOP(=O)(Cc1ccc2c(c1)CCN(CC(NC(=O)OC1COC3OCCC13)C(O)CN(CC(C)C)S(=O)(=O)c1ccc(OC)cc1)C2)OCC (centres unmarked) |  | Ki: + + |
| CCOP(=O)(CNc1ccc(CC(NC(=O)OC2COC3OCCC23)C(O)CN(CC(C)C)S(=O)(=O)c2ccc(OC)cc2)cc1)OCC (centres unmarked) |  | Ki: + + + |
| COc1ccc(S(=O)(=O)N(CC(C)C)CC(O)C(Cc2ccc(NCP(=O)(OCc3ccccc3)OCc3ccccc3)cc2)NC(=O)OC2COC3OCCC23)cc1 (centres unmarked) |  | Ki: + + + |
| COc1ccc(S(=O)(=O)N(CC(C)C)CC(O)C(Cc2ccc(NCCP(=O)(O)O)cc2)NC(=O)OC2COC3OCCC23)cc1 (centres unmarked) |  | Ki: + + |
| COc1ccc(S(=O)(=O)N(CC(C)C)CC(O)C(Cc2ccc(C)cc2)NC(=O)OC2COC3OCCC23)cc1 (centres unmarked) | + + |  |
| COc1ccc(S(=O)(=O)N(CC(C)C)CC(O)C(Cc2ccc(OCc3ccccc3)cc2)NC(=O)OC2COC3OCCC23)cc1 (centres unmarked) | + + + |  |
| COc1ccc(S(=O)(=O)N(CC2CCN(C=O)CC2)CC(O)C(Cc2ccc(OCP(=O)(O)O)cc2)NC(=O)OC2COC3OCCC23)cc1 (centres unmarked) | + + |  |
| CCOP(=O)(COc1ccc(CC(NC(=O)OC2COC3OCCC23)C(O)CN(CC2CCN(C=O)CC2)S(=O)(=O)c2ccc(OC)cc2)cc1)OCC (centres unmarked) | + + |  |
| COc1ccc(S(=O)(=O)N(Cc2ccccc2)CC(O)C(Cc2ccccc2)NC(=O)OC2COC3OCCC23)cc1 (centres unmarked) | + + |  |
| COc1ccc(S(=O)(=O)N(CC(O)C(Cc2ccccc2)NC(=O)OC2COC3OCCC23)CC(C)(C)CO)cc1 (centres unmarked) | + + + |  |
| CC(C)CN(CC(O)C(Cc1ccc(OCP(=O)(O)O)cc1)NC(=O)OC1COC2OCCC12)S(=O)(=O)c1ccc(N)cc1 (centres unmarked) | + + |  |
| CCOP(=O)(COc1ccc(CC(NC(=O)OC2COC3OCCC23)C(O)CN(CC(C)C)S(=O)(=O)c2ccc(N)cc2)cc1)OCC (centres unmarked) | + + |  |
| CCNc1ccc(S(=O)(=O)N(CC(C)C)CC(O)C(Cc2ccc(OCP(=O)(OCC)OCC)cc2)NC(=O)OC2COC3OCCC23)cc1 (centres unmarked) | + + |  |
| CC(C)CN(CC(O)C(Cc1ccc(OCP(=O)(OCc2ccccc2)OCc2ccccc2)cc1)NC(=O)OC1COC2OCCC12)S(=O)(=O)c1ccc(N)cc1 (centres unmarked) | + + |  |
| CC(C)CN(CC(O)C(Cc1ccc(OCP(=O)(O)O)cc1)NC(=O)OC1COC2OCCC12)S(=O)(=O)c1cccc(N)c1 (centres unmarked) | + + |  |

| SMILES | Ki (pM) | other results |
| --- | --- | --- |
| CCOP(=O)(COc1ccc(CC(NC(=O)OC2COC3OCCC23)C(O)CN(CC(C)C)S(=O)(=O)c2cccc(N)c2)cc1)OCC (centres unmarked) | + + |  |
| CC(C)CN(CC(O)C(Cc1ccc(OCP(=O)(OCc2ccccc2)OCc2ccccc2)cc1)NC(=O)OC1COC2OCCC12)S(=O)(=O)c1cccc(N)c1 (centres unmarked) | + + |  |
| CC(C)CN(CC(O)C(Cc1ccc(OCP(=O)(O)O)cc1)NC(=O)OC1COC2OCCC12)S(=O)(=O)c1ccccc1 (centres unmarked) | + + |  |
| CC(C)CN(CC(O)C(Cc1ccc(OCP(=O)(OCc2ccccc2)OCc2ccccc2)cc1)NC(=O)OC1COC2OCCC12)S(=O)(=O)c1ccccc1 (centres unmarked) | + + |  |
| CC(C)CN(CC(O)C(Cc1ccc(OCP(=O)(O)O)cc1)NC(=O)OC1COC2OCCC12)S(=O)(=O)c1ccc(F)cc1 (centres unmarked) | + + |  |
| CC(C)CN(CC(O)C(Cc1ccc(OCP(=O)(OCc2ccccc2)OCc2ccccc2)cc1)NC(=O)OC1COC2OCCC12)S(=O)(=O)c1ccc(F)cc1 (centres unmarked) | + + |  |
| CC(C)CN(CC(O)C(Cc1ccc(OCP(=O)(O)O)cc1)NC(=O)OC1COC2OCCC12)S(=O)(=O)c1ccc(C(F)(F)F)cc1 (centres unmarked) | + + + |  |
| CC(C)CN(CC(O)C(Cc1ccc(OCP(=O)(OCc2ccccc2)OCc2ccccc2)cc1)NC(=O)OC1COC2OCCC12)S(=O)(=O)c1ccc(C(F)(F)F)cc1 (centres unmarked) | + + |  |
| CC(C)CN(CC(O)C(Cc1ccc(OCP(=O)(O)O)cc1)NC(=O)OC1COC2OCCC12)S(=O)(=O)c1ccc(OC(F)(F)F)cc1 (centres unmarked) | + + |  |
| CC(C)CN(CC(O)C(Cc1ccc(OCP(=O)(OCc2ccccc2)OCc2ccccc2)cc1)NC(=O)OC1COC2OCCC12)S(=O)(=O)c1ccc(OC(F)(F)F)cc1 (centres unmarked) | + + |  |
| CC(C)CN(CC(O)C(Cc1ccc(OCP(=O)(OCc2ccccc2)OCc2ccccc2)cc1)NC(=O)OC1COC2OCCC12)S(=O)(=O)c1ccc(C#N)cc1 (centres unmarked) | + + |  |
| CC(C)CN(CC(O)C(Cc1ccc(OCP(=O)(OCc2ccccc2)OCc2ccccc2)cc1)NC(=O)OC1COC2OCCC12)S(=O)(=O)c1ccc(CO)cc1 (centres unmarked) | + + |  |
| CC(C)CN(CC(O)C(Cc1ccccc1)NC(=O)OC1COC2OCCC12)S(=O)(=O)c1ccc(O)cc1 (centres unmarked) | + + + |  |
| CC(C)CN(CC(O)C(Cc1ccccc1)NC(=O)OC1COC2OCCC12)S(=O)(=O)c1ccc(OCP(=O)(O)O)cc1 (centres unmarked) | + + + |  |
| CCOP(=O)(COc1ccc(S(=O)(=O)N(CC(C)C)CC(O)C(Cc2ccccc2)NC(=O)OC2COC3OCCC23)cc1)OCC (centres unmarked) | + + |  |
| CC(C)CN(CC(O)C(Cc1ccccc1)NC(=O)OC1COC2OCCC12)S(=O)(=O)c1cccc(O)c1 (centres unmarked) | + + + |  |
| COc1cccc(S(=O)(=O)N(CC(C)C)CC(O)C(Cc2ccccc2)NC(=O)OC2COC3OCCC23)c1 (centres unmarked) | + + + |  |
| CC(C)CN(CC(O)C(Cc1ccccc1)NC(=O)OC1COC2OCCC12)S(=O)(=O)c1cccc(OCP(=O)(O)O)c1 (centres unmarked) | + + |  |
| CCOP(=O)(COc1cccc(S(=O)(=O)N(CC(C)C)CC(O)C(Cc2ccccc2)NC(=O)OC2COC3OCCC23)c1)OCC (centres unmarked) | + + + |  |
| CC(C)CN(CC(O)C(Cc1ccccc1)NC(=O)OC1COC2OCCC12)S(=O)(=O)c1cccc(OCP(=O)(OCc2ccccc2)OCc2ccccc2)c1 (centres unmarked) | + + |  |
| COc1ccc(S(=O)(=O)N(CC(C)C)CC(O)C(Cc2ccccc2)NC(=O)OC2COC3OCCC23)cc1O (centres unmarked) | + + + |  |
| COc1ccc(S(=O)(=O)N(CC(C)C)CC(O)C(Cc2ccccc2)NC(=O)OC2COC3OCCC23)cc1OCP(=O)(O)O (centres unmarked) | + + + |  |
| O=C1N(Cc2ccccc2)C(Cc2ccccc2)C(O)C(O)C(Cc2ccc(OCP(=O)(OCc3ccccc3)OCc3ccccc3)cc2)N1Cc1ccccc1 (centres unmarked) |  | pIC50: 8.13; Ki (Enzymatic assay Ki (nM)): 0.125 nM |
| O=C1N(Cc2ccccc2)C(Cc2ccccc2)C(O)C(O)C(Cc2ccc(OCP(=O)(O)O)cc2)N1Cc1ccccc1 (centres unmarked) |  | pIC50: 8.01; Ki (Enzymatic assay Ki (nM)): 0.386 nM |
